This is an account of results in PubChem BioAssay AID485350 (ICCB-Longwood Screening Facility, Harvard Medical School, 2010).

Molecules are shown by their SMILES. The entries are a selection whose mix differs from that of the whole data set. Some results for these compounds are left out of this collection, so the calls shown say nothing about other tests. Activity calls are given as the source filed them. No stated cut-off is given here; in the data, active means inhibition above about 25% (passing the limit was not always enough); inactive means the rest.

For this experiment, the system named is BasE (2,3-dihydroxybenzoate-AMP ligase), Acinetobacter baumannii ATCC 17978. The experiment in a line: inhibitors of A. baumannii BasE – biochemical, Acinetobacter baumannii ATCC 17978, fluorescence polarization, primary screen (AID 485350).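 Further: 0% = negative plate control signal and 100% = positive plate control signal.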 The following applies: purified BasE, fluorescence polarization binding displacement; stronger effect = higher value; concentration not given here.
For the compound `CN1C2CCC1CC(OC(=O)C(O)(c1ccccc1)c1ccccc1)C2` (configuration not stated), the inhibition was inactive: 1.22%.
Consider `O=C(NCC1(N2CCCCC2)CCCCC1)c1ccc2c(c1)OCCO2`, for which the inhibition is inactive: -0.46%.
Regarding `CN(C)C1(CNC(=O)c2ccncc2)CCCCC1`, the inhibition is inactive: -0.33%.
In the case of `N#CC(C#N)=Cc1ccccc1` it was inactive: 3.61%; in that of `COc1ccc(OC)c(C=C(C#N)C#N)c1`, inactive: 3.19%.
In the case of `CN(C)c1ccc(C(=O)NCC2(N(C)C)CCCCC2)cc1`, the inhibition was inactive: -0.93%.
With `O=C(NCC1(N2CCOCC2)CCCCC1)c1cnc(Cl)c(Cl)c1`, the inhibition is inactive: 1.41%.
